What was measured:
[1] = tested on: AR-V7; experiment: AR-V7 mRNA and protein expression in LNCaP-95 cells; assay type: cell-based; settings: 10 μM, 48 hours
[2] = tested on: AR N/C interaction; experiment: Fluorescent-Two Hybrid assay for AR N/C interaction; assay type: cell-based; settings: BHK cells, 10 μM, media containing androgens

SMILES | AR-V7 mRNA expression ([1]; relative to RPL19) | AR-V7 protein abundance ([1]; western blot) | AR interdomain (N/C) interaction [2]
CNC(=O)c1ccc(N2C(=S)N(c3ccc(C#N)c(C(F)(F)F)c3)C(=O)C2(C)C)cc1F [enzalutamide] | increased AR-V7 mRNA expression | increased AR-V7 mRNA expression and protein levels | suppressed AR interdomain interaction
CNC(=O)c1ccc(N2C(=S)N(c3cnc(C#N)c(C(F)(F)F)c3)C(=O)C23CCC3)cc1F [ARN509] | – | – | suppressed AR interdomain interaction

Source: PMC5010535 (Cancer research, 2016)
